Values quoted from earlier work, collected in US8273715B2, “Methods of treating fragile X syndrome” (Seaside Therapeutics, Inc., priority 2006, dated 2012).

Test system: subjects with autism
Details: cited from earlier work

Cc1nc2n(c(=O)c1CCN1CCC(c3noc4cc(F)ccc34)CC1)CCCC2 [risperidone, 3-[2-[4-(6-fluoro-1,2-benzisoxazol-3-yl)piperidino]ethyl]-2-methyl-6,7,8,9-tetrahydro-4H-pyrido[1,2-α]pyrimidin-4-one]
side effect: weight gain (over 8 weeks): 2.7 kg | side effect: dizziness (subjects with autism): 16% | side effect: drooling (subjects with autism): 27% | side effect: drowsiness (subjects with autism): 49% | side effect: fatigue (subjects with autism): 59% | side effect: increased appetite (subjects with autism): 73%
